The values that follow are results of earlier work, collected in article PMC9031317, “Development of Self-Administered Formulation to Improve the Bioavailability of Leuprorelin Acetate” (Pharmaceutics, 2022).

For the data set the following is noted: Table 1 property; source not given.

Consider “Leuprolide acetate [Leuprolide acetate (LA)]”, for which the PI is reported as 9.1.
